The values below come from PubChem BioAssay AID697 (Columbia University Molecular Screening Center, 2007).

Amino acid sequences for entries named in this document (tags omitted).
UniProt Q9Y2R2, whole entry: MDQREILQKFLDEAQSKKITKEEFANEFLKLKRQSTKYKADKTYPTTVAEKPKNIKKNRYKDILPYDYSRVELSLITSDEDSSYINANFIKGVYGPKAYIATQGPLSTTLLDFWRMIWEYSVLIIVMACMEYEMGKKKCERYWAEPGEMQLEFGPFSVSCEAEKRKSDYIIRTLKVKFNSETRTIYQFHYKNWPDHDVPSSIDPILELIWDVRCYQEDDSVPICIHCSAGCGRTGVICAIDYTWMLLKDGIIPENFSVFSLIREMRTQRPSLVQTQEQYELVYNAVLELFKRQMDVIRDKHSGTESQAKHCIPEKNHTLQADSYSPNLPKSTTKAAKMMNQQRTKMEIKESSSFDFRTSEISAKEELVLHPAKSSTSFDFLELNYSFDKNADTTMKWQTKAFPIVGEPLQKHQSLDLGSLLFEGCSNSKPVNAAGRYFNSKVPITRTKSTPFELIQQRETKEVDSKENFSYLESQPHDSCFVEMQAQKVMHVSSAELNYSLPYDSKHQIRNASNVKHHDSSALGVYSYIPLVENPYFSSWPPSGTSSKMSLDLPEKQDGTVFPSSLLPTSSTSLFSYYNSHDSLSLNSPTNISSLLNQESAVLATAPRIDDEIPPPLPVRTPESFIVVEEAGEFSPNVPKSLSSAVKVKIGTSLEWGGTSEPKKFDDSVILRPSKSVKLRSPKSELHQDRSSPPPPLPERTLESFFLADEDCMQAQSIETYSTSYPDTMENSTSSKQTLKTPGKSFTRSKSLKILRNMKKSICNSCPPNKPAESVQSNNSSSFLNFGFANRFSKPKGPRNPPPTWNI

This is a selection; strong and weak results do not stand in their true shares. Some of these compounds have results that are not shown, active ones among them. Calls of active or inactive are those of the source.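 Rule for the calls: active = activation at 2 µM above a set limit, the mean plus 5 SD (cut at about 37% in these data); inactive = the rest.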

This assay has as its target Tyrosine-protein phosphatase non-receptor type 22 (Homo sapiens) (UniProt Q9Y2R2). The assay is described as follows: LYP phosphatase activators, primary screen, biochemical, DiFMUP fluorescence, 2 µM (AID 697). Particulars: recombinant LYP, at 2 µM, hits give high values, 0 = plate median, 100 = signal doubled.
As for `CN(C)c1cccc(C(=O)NCC2(N(C)C)CCCCC2)c1`, the activation is inactive: 0%.

Take `O=C(OC1CN2CCC1CC2)C(CO)(c1ccccc1)c1ccccc1` (stereo not drawn): the activation was inactive: -1.5%.

For `CC(C)N1C(=O)CC2(CCN(CCOC(=O)C(O)(c3ccccc3)c3ccccc3)CC2)C1=O`, the activation was inactive: -1.8%.
